In paper PMC4370192, “Discovery of Specific Inhibitors for Intestinal E. coli β-Glucuronidase through In Silico Virtual Screening” (The Scientific World Journal, 2015):

Molecular target: T1, human βG (hβG) (Homo sapiens, UniProt P08236)
T1 construct: histidine tag (N); made in house; host or cells: E. coli BL21 (DE3)
T1 sequence (P08236 23-651): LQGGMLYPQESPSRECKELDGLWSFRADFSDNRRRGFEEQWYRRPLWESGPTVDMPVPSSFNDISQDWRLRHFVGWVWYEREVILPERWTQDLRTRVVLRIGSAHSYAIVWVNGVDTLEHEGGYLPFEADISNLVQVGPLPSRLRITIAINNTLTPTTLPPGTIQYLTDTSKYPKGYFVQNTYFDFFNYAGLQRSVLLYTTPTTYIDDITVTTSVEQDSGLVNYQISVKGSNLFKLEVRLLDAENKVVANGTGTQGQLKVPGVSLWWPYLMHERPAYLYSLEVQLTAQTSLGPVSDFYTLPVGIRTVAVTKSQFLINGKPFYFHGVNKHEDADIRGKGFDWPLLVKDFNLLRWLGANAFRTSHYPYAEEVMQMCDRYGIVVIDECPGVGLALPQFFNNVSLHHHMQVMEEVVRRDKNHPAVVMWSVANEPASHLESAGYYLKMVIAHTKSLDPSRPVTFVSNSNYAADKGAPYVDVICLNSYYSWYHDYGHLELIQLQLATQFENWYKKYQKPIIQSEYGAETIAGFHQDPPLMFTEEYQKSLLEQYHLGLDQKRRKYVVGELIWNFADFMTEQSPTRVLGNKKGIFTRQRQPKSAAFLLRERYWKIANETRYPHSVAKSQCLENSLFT
Assay: In vitro βG-activity assay (pNPG hydrolysis), hβG
Format: biochemical
Conditions: 10 μM compound, Figure 2
Description: Plasmid pRESTB containing βG gene and a histidine tag at the N-terminus was constructed as described. Recombinant βG (human and E. coli) was produced by isopropyl β-D-thiogalactopyranoside (IPTG) induction of BL21 (DE3) bacteria. βG was purified from bacterial supernatants by affinity chromatography on nickels Sepharose 6 Fast Flow (GE Healthcare). The column was washed by phosphate-buffered saline (PBS), with 50 mM imidazole, and βG was eluted by PBS with 250 mM imidazole. The purified βG was desalted on a Sephadex G-25 column equilibrated with PBS and stored at −80°C.
The candidate compounds were purchased from SPECS (The Netherlands). Each candidate was provided as a solid power and dissolved in 100% DMSO (Sigma-Aldrich) to 10 mM as stock. […] Each reaction consisted of 3.75 ng purified βG, 50 μM compound, and 5 mM pNPG in PBS containing 10% DMSO and 0.05% BSA (Sigma-Aldrich). βG-activities were measured by color development of pNP detected on a microplate reader at OD 405 nm.
(Table S1) The candidate compounds were purchased from SPECS (Zoetermeer, The Netherlands). […] Each reaction consisted of 3.75 ng purified βG, 50 µM compound, and 5 mM pNPG in PBS containing 10% DMSO and 0.05% BSA (Sigma-Aldrich). βG-activities were measured by color development of pNP detected on a microplate reader at OD 405 nm. […]

In the case of O=C(O)[C@@H](O)[C@H]1OC(=O)[C@H](O)[C@H]1O [D-saccharic acid 1,4-lactone, reference compound], the “inhibition of hβG versus eβG” value is reported as “higher inhibition on hβG”.
